The numbers were not newly measured in patent publication US8815249B2 (priority 1999, dated 2014), which cites them from elsewhere.

The conditions of this data set: plasma; cited from earlier work.

AAGIGILTV [MART-1(27-35) peptide]: the calculated half-life was 22 s.
